Tests used:
[1] = Selectivity ratio of IC50 for inhibition of PI3Kbeta (unknown origin) to IC50 for inhibition of p110delta/p85alpha (unknown origin)
[2] = Selectivity ratio of IC50 for inhibition of PI3Kgamma (unknown origin) to IC50 for inhibition of p110delta/p85alpha (unknown origin)
[3] = Selectivity ratio of IC50 for inhibition of p110alpha/p85alpha (unknown origin) to IC50 for inhibition of p110delta/p85alpha (unknown origin)

In the case of Cn1cc(-c2nc(N3CCOCC3)c3sc(CN4CCC(C(C)(C)O)CC4)cc3n2)c2cc[nH]c2c1=O, the Ratio IC50 [1] is reported as 42, the Ratio IC50 [2] is reported as 8.2 and the Ratio IC50 [3] is reported as 65.

Reference: ChEMBL document CHEMBL6153089, “Design, Synthesis, and Biological Evaluation of Thieno[3,2-d]pyrimidine Derivatives as the First Bifunctional PI3Kδ Isoform Selective/Bromodomain and Extra-Terminal Inhibitors” (J Med Chem, 2025)
